Values of other authors, collected in patent US5272175A, “Substituted tyrosyl diamide compounds” (priority 1992, dated 1993).

Test system: μ, κ and δ opioid receptors
Conditions: central nervous system; cited from earlier work

## C=CCN1CC[C@]23c4c5ccc(O)c4O[C@H]2C(=O)CC[C@@]3(O)[C@H]1C5 [naloxone]
  affinity for all three opioid receptor categories: bind with high affinity to all three categories of opioid receptors
